Screening results deposited in PubChem BioAssay by several laboratories.
PDI turbidity: blocks human protein disulfide isomerase activity; P07237; PDI insulin aggregation turbidity, A650, 90 min; inhibition, % at 10 µM; hit rate 0.052% among 350,000; AID 588391;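 active = mean inhibition across replicates of 30% or more, whatever share of single replicates reach that level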
SMARCA2 activ: activators of SMARCA2 function | activation, % at 9.1 µM | hit rate 1% among 370,000 | MG213 cells, MMTV-luciferase reporter, dexamethasone, overnight | AID 652017; in the data active = activation above about 7.8%;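 also: 0% = vehicle wells and 100% = reference activator wells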
ERp5 block: blocks human ERp5 reductase activity on insulin | Q15084 | hit rate 0.05% among 350,000 | ERp5 insulin aggregation, absorbance 650 nm, 90 min | AID 651711 | inhibition, % at 9.99 µM;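 active = mean replicate inhibition above about 25%, with every replicate also reaching it, limit read from the data, passing the limit was not always enough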
Rev-erbA mod: Rev-erb alpha (human) modulation. P20393. hit rate 0.79% among 370,000. Rev-erbα–FITC-DNA binding, fluorescence polarization, 90 min. activity, % at 10 µM;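 active = activity above about 14%, limit read from the data; passing the limit was not always enough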;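 also: 0% = DMSO wells with 35 nM protein and 100% = DMSO wells with 750 nM protein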
UUG fidelity: alters start codon recognition fidelity in yeast | S. cerevisiae UUG-firefly luciferase reporter, luminescence/redox ratio | activity score, % at 18.7 µM | hit rate 0.13% among 350,000 | AID 602363;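 active means replicate mean at a twofold rise or more, about +100% in these data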;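 further: firefly luciferase made from a UUG start codon reports start codon fidelity; reporter light over untreated wells divided by growth signal over untreated wells; some hits fall short of that in this replicate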
INS-1E GSIS act: GLuc luminescence reporter in INS-1E cells, primary screen for activators of glucose-dependent secretion of insulin; activation, % at 16.6 µM; hit rate 0.61% among 370,000; INS-1E GLuc reporter insulin secretion, 2-3 h;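 active = lowest replicate activation of at least 40%, so every replicate reaches that level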;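 also: 0% = median of neutral control wells and 100% = median of IBMX positive control wells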
SMARCA2 conf: confirmation of SMARCA2 (BRM) function activators; hit rate 30% among 3,500; activation, % at 9.1 µM; shares compounds with SMARCA2 activ; MG213 cells, MMTV-luciferase with dexamethasone, luminescence, overnight; MG213 cells expressing E1A, Rb sequestered; DMSO wells 0%, reference activator 100%;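 active = activation above its plate's cutoff, the mean activation of tested wells plus 3 SD, cut at about 7.9% in these data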
GAL4-VP16 Luc: activates GAL4-VP16 luciferase, flagging SMARCA2 activator hits; HEK293 GAL4-VP16 pG5luc reporter, luciferase luminescence; scaled: DMSO wells 0%, SAHA wells 100%; shares compounds with SMARCA2 activ; activation, % at 9.1 µM; hit rate 41% among 3,500;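 active = activation above the solvent-only control well mean plus 3 SD, averaged across control plates, cut at about 5.2% in these data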
Starred values were filed as active, the others as inactive; nt = no result given. In the library only some 2.1% were active in any assay of this set; here they are far more common.

The first two entries, to show the layout:
no.	structure	PDI turbidity	SMARCA2 activ	ERp5 block	Rev-erbA mod	UUG fidelity	INS-1E GSIS act	SMARCA2 conf	GAL4-VP16 Luc
1	COc1ccc2[nH]c(C)c(CCN3C(=O)C4CC=CCC4C3=O)c2c1 (stereo not drawn)	nt	9.1*	-4	-3	-6	-7	-4	-2
2	C[C@H]1CN([C@@H](C)CO)C(=O)Cc2cc(NC(=O)c3ccncc3)ccc2O[C@H]1CN(C)S(=O)(=O)c1ccccc1	nt	nt	7	nt	12	17	nt	nt

All compounds of this part, from the start:
no.	structure	PDI turbidity	SMARCA2 activ	ERp5 block	Rev-erbA mod	UUG fidelity	INS-1E GSIS act	SMARCA2 conf	GAL4-VP16 Luc
1	COc1ccc2[nH]c(C)c(CCN3C(=O)C4CC=CCC4C3=O)c2c1 (stereo not drawn)	nt	9.1*	-4	-3	-6	-7	-4	-2
2	C[C@H]1CN([C@@H](C)CO)C(=O)Cc2cc(NC(=O)c3ccncc3)ccc2O[C@H]1CN(C)S(=O)(=O)c1ccccc1	nt	nt	7	nt	12	17	nt	nt
3	NC1=NC(=O)/C(=C/C=C/c2cccs2)S1	3	16*	6	-2	nt	9	8.6*	5.8*
4	CC(C)NC(=O)N(C)C[C@@H]1Oc2c(N)cccc2C(=O)N(C)C[C@H]1C	nt	nt	nt	nt	nt	-6	nt	nt
5	COc1cccc(C(=O)Nc2ccc3c(c2)C(=O)c2ccccc2C3=O)c1	-5	12*	3	-26	nt	10	3	12*
6	O=C(Nc1ccc2c(c1)C(=O)c1ccccc1-2)c1ccccc1	-4	2	-3	-32	-15	-3	nt	nt
7	COc1cccc(C(=O)NCCSc2ccc(C)cc2)c1	-2	-1	2	-2	nt	-21	nt	nt
8	COc1ccc(NC(=O)c2ccc(C)cc2)c(OC)c1	5	14*	nt	2	nt	2	7	6.8*
9	COc1ccc(NC(=O)c2ccc3[nH]c(=O)c(=O)[nH]c3c2)c(OC)c1	16	0	1	-5	-17	7	nt	nt
10	COc1cccc(C(=O)NCCSc2ccc(F)cc2)c1	6	16*	2	-6	nt	-6	12*	10.0*
11	COc1cccc(C(=O)Nc2ccc(F)c(F)c2F)c1	-16	9.0*	nt	1	-13	nt	2	7.9*
12	COc1cccc(C(=O)Nc2ccc(C)cc2)c1	-5	11*	nt	1	-26	-10	5	6.6*
13	CNC(=O)C[C@@H]1CC[C@@H]2[C@H](COc3ccc(NC(=O)Nc4c(C)noc4C)cc3C(=O)N2C)O1	nt	nt	nt	nt	-5	9	nt	nt
14	O=C(/C=C/c1ccco1)N1CCN(c2ncccn2)CC1	-2	8.8*	nt	-1	0	-8	6	6.5*
15	CC(C)NC(=O)c1ccc2c3n(nc2c1)-c1ccc(Cl)cc1CO3	-2	4	6	-8	-14	-12	nt	nt
16	CCN(CC)CCCNC(=O)c1ccc2c3n(nc2c1)-c1ccc(Cl)cc1CO3	-5	11*	5	-4	-7	-8	23*	7.2*
17	CCc1ccc(CCNC(=O)OC2CC3CC2[C@H]2CCCCN2[C@H]3Cc2ccccc2)cc1 (stereo partly drawn)	nt	-3	nt	12	nt	nt	nt	nt
18	CCCC[C@H]1C2CC(OC(=O)NCCCc3ccccc3)C(C2)[C@H]2CCCCN21 (stereo partly drawn)	nt	11*	nt	2	nt	nt	0	1
19	CCc1ccc2cc3c(cc2n1)C(=O)c1ccccc1-3	nt	8.6*	4	6	-43	32	12*	13*
20	O=C(CCOc1ccccc1)Nc1ccc(Br)cc1	8	11*	4	-8	-18	0	8	5.3*
21	O=C(CCCOc1ccccc1)Nc1ccc(Br)cc1	11	1	nt	-4	-19	nt	nt	nt
22	CSc1oc(-c2ccco2)nc1S(=O)(=O)c1ccc(C)cc1	-3	9.2*	2	0	-9	1	0	1
23	O=c1cc(-c2ccccc2Cl)oc2cc(O)cc(O)c12	-5	4	-2	-10	1	3	nt	nt
24	Nc1ccc(O)c2c(=O)cc(-c3ccccc3Cl)oc12	1	8.1*	1	-3	-16	10	7	11*
25	COc1ccc([C@H]2N[C@]3(CCCN(Cc4ccco4)C3=O)[C@H]3C(=O)N(Cc4ccccc4)C(=O)[C@@H]23)cc1	1	9.0*	3	4	-8	-10	-4	0
26	O=C(OCC(=O)N1CCCC1=O)c1nc(Cl)c(Cl)c(Cl)c1Cl	-9	34*	-4	-16	-6	-13	7	4
27	COc1cccc(-c2ccc3c(N)c(C(=O)NC4CC4)sc3n2)c1	-8	13*	-1	1	nt	-4	3	8.5*
28	O=C(NCC1CC1)[C@H]1[C@H](CO)[C@H]2Cn3c(ccc(C4=CCCC4)c3=O)[C@H]2N1Cc1ccccc1F	nt	nt	2	nt	nt	2	nt	nt
29	Cc1nc2ccc(-c3nc4ccccc4o3)cc2[nH]1	-4	9.0*	nt	2	-31	nt	7	13*
30	Nc1ccc(-c2nc3ccc(-c4nc5ccccc5o4)cc3[nH]2)cc1	9	4	nt	-9	-3	nt	nt	nt
31	C/C(=N/OCc1ccc(Br)cc1)c1ccccn1	7	9.1*	0	-3	nt	1	7	8.7*
32	C=CCN1C(=O)/C(=C/c2ccc(OC)cc2)S/C1=N/c1nccs1	18	10*	nt	-4	nt	5	-1	1
33	O=C(CCl)Oc1ccc2occ(C(=O)c3cccs3)c2c1	15	8.6*	nt	0	10	4	4	6.5*
34	CC(=O)Oc1ccc2occ(C(=O)c3cccs3)c2c1	-2	2	nt	1	-3	2	nt	nt
35	O=c1c(-c2ccc(F)cc2)coc2cc(O)ccc12	9	12*	3	-3	-25	-3	5	11*
36	COc1ccc(-c2coc3cc(O)ccc3c2=O)cc1OC	2	5	nt	-1	-14	nt	nt	nt
37	Cc1noc(C)c1S(=O)(=O)Nc1ccc2c(c1)C(=O)N([C@H](C)CO)C[C@H](C)[C@@H](CN(C)C(=O)c1ccncc1)OCCCC[C@H](C)O2	nt	nt	-3	nt	5	3	nt	nt
38	O=C(O)c1ccc2c(c1)SC1=NS(=O)(=O)CCN12	0	-1	-5	-6	-21	-7	nt	nt
39	CN(C(=O)c1ccc2c(c1)SC1=NS(=O)(=O)CCN12)C(c1ccccc1)c1ccccc1	-4	10*	nt	-2	nt	93*	14*	3
40	CS(=O)(=O)N1CC(=O)N2[C@H](C1)[C@@H](c1ccc(C#Cc3ccccc3)cc1)[C@@H]2CO	nt	nt	2	nt	nt	2	nt	nt
41	Cc1ccc(C(=O)Nc2cccnc2Cl)cc1Cl	0	8.3*	5	7	-14	13	9.1*	7.5*
42	CCOC(=O)C1=CCC(c2cc3ccccc3[nH]2)NC1 (stereo not drawn)	nt	11*	0	-1	nt	1	6	7.0*
43	CCOC(=O)c1c(C)nc(C)c(C(=O)OCC)c1-c1ccccc1	-1	nt	0	-4	nt	-1	nt	nt
44	Cc1ccc(OCC(=O)NC2=NCCS2)cc1	-10	3	nt	-2	-28	nt	nt	nt
45	Cc1ccccc1OCC(=O)NC1=NCCS1	11	9.0*	-1	4	-24	10	7	12*
46	O=C(C[C@H]1C=C[C@H](NC(=O)Nc2cc(F)ccc2F)[C@H](CO)O1)NCc1ccncn1	nt	nt	4	nt	-17	9	nt	nt

Sorted by SMILES length (highest first): part of the list above
no.	structure	PDI turbidity	SMARCA2 activ	ERp5 block	Rev-erbA mod	UUG fidelity	INS-1E GSIS act	SMARCA2 conf	GAL4-VP16 Luc
32	C=CCN1C(=O)/C(=C/c2ccc(OC)cc2)S/C1=N/c1nccs1	18	10*	nt	-4	nt	5	-1	1
36	COc1ccc(-c2coc3cc(O)ccc3c2=O)cc1OC	2	5	nt	-1	-14	nt	nt	nt
35	O=c1c(-c2ccc(F)cc2)coc2cc(O)ccc12	9	12*	3	-3	-25	-3	5	11*
